{
  "source": "paper PMC9162929",
  "about": "“Conversion of recombinant human ferritin light chain inclusion bodies into uniform nanoparticles in Escherichia coli for facile production” (Engineering in Life Sciences, 2022)",
  "proteins": {"B1": {"name": "recombinant human ferritin light chain (natural protein, UniProt P02792 1-175, looked up)", "chain": "MSSQIRQNYSTDVEAAVNSLVNLYLQASYTYLSLGFYFDRDDVALEGVSHFFRELAEEKREGYERLLKMQNQRGGRALFQDIKKPAEDEWGKTPDAMKAAMALEKKLNQALLDLHALGSARTDPHLCDFLETHFLDEEVKLIKKMGDHLTNLHRLGGPEAGLGEYLFERLTLKHD", "notes": "human ferritin light chain, UniProtKB P02792; codon-optimised gene, amplified with primers from the start codon (…) to the stop codon; tag-free; Tag-free; Assembled nanoparticle; the number of subunits in the rhFTL particle is not measured here (the introduction says natural human ferritin generally contains 24 subunits); ESI-MS mass 19878.0 Da, said to coincide with the theoretical value; the …"}},
  "molecular_target": "the molecule itself",
  "assay": "SEC; HP-SEC on TSKgel G3000SWxl, PBS with 0.1 M Na2SO4, 0.5 mL/min, detection at 280 nm; BSA (67 kDa) as size marker",
  "data": [
    {"protein": "B1", "values": [
      {"measurement": "binding result", "result": "binds"}
    ]}
  ]
}
